Data: patent publication US20260275319A1, “ARCHAEAL PEPTIDE RECOMBINASE – A NOVEL PEPTIDE LIGATING ENZYME” (MAX-PLANCK-GESELLSCHAFT ZUR FÖRDERUNG DER WISSENSCHAFTEN …, priority 2019, published 2026)

Legend:
[1] = system: Strep-Ub-(5)KDPGA(10)-His6 and PGA(15)-Ub in E. coli cell lysates; assay: Ligation of two recombinantly expressed substrates in cell lysates with single step purification; settings: 0.09 g/l enzyme, 15 min, 37° C.
[2] = system: (15)KDPGA(10) and PGA(10F) substrates; settings: 15 μM substrates, 8 min, 80° C.
[3] = system: (15)KDPGA(10) and PGA(10F) substrates; settings: 100 nM enzyme, 15 μM substrates, 8 min, 85° C. (M. jannaschii variants) or 50° C. (M. mazei)

Molecule | substrate specificity in complex solutions [1] | ligase activity at low enzyme concentrations / standard assay conditions [2] | decrease of ligase activity compared to unmodified Adriase ([2]; 7-15000 nM enzyme) | ligase activity (fluorescent ligation product) [3] | ligase activity (fluorescent ligation product) ([3]; listed as N-terminally modified M. jannaschii Adriase)
M. mazei Adriase: Methanosarcina mazei Adriase (MM_2909), archaeal peptide recombinase, C-terminal His6-tag; Strep-, Myc-, HA-tagged versions used as pulldown bait (protein, C-terminal His6-tag; M. mazei Adriase with C-terminal His-tag, Methanosarcina mazei Adriase (MM_2909), archaeal peptide recombinase, C-terminal His6-tag; Strep-, Myc-, HA-tagged versions used as pulldown bait) TLVIAFIGKNGAVMAGDMREITFEGEKPDREKLEKELYSGSIVTDEEMQKKAEEFGVKITVADCKEKVSERNGVLVGEVSSAEGGVVKKRRLYASAGNFAIAELINTEMTLTSQGKGSNFIAFGNEFTKQVANKCFKDNWTKKSNLQDAVKILILCMETVARKTASVSKQFMIVQTASNADVLKVVEKDRNCGSHHHHHH | highly specific | – | – | – | –
N-His: M. jannaschii Adriase variant lacking a free amino group at the active site serine (N-terminal His6-tag) (protein, listed as Methanocaldococcus jannaschii, N-terminal His6-tag; N-terminally modified M. jannaschii Adriase) MGSSHHHHHHSSGLVPRGSHMSLIICYYGKNGAVIGGDRRQIFFRGSEENRKILEEKLYSGEIKSEEELYKLAEKLNIKIIIEDDREKVRKISDSVVCGEVRSLGIDAKRRRVYATKGKCAIVDILNDTVTNQTIKEGFGIVVLGNRFLKKKAEEELKRTAKLFPMMPIQQIEDAIKEIFEKLKWHPTVSKEYDIYSVNKYEKNFEEVIKKDIESLFKYREQLRKQLIDFGKVMSIVNKIVKNGEIGVIKDGKLHLYDDYIAIDKIDPNPKVFKVVDVEGNFKDGDIVVIENGDMKIKGTNEKVTTKYIIIHK | – | no activity | ~ 200 × | no ligation product is observed | no transpeptidase activity

Like-named read-outs stand apart in the source and are kept apart here.
